Results on two molecules are retold here after PubChem BioAssay AID463195 (Sanford-Burnham Center for Chemical Genomics, 2010).

This is a selection; strong and weak results do not stand in their true shares. Calls of active or inactive are those of the source.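 Rule for the calls: active = inhibition of 40% or more at the single tested concentration; inactive = the rest.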

This assay can be described thus: wild-type TIM10 yeast growth inhibition – luminescence, uHTS, counter-screen for tim10-1 yeast inhibitor project, primary screen (AID 463195).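 Note: wild-type TIM10 isogenic control strain grown at permissive 25 °C; 0% = DMSO yeast wells and 100% = minimal medium wells without yeast.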 Particulars: S. cerevisiae TIM10 strain growth, BacTiter-Glo luminescence, 24 h; at 10 µM; stronger effect = higher value. (In general: A counterscreen serves to expose hits that act by an unwanted route or on another target.)
What is called inhibition is the share of the control response that was lost under treatment. Turning to `CCC(=O)N(c1ccccc1)C1(COC)CCN(CCc2cccs2)CC1`, the inhibition was inactive: 2.38%. For the molecule `CCC(=O)N(c1ccccc1)C1(COC)CCN(CCn2nnn(CC)c2=O)CC1`, the inhibition was inactive: 1.91%.
